According to patent publication US20230105982A1, “INSULIN-INCRETIN CONJUGATES” (Merck Sharp & Dohme Corp., priority 2021, published 2023):
Like-named read-outs stand apart in the source and are kept apart here.

By UniProt entry, the sequences of proteins in these tests, tags left out. Residues count along the entry.
UniProt P47871, 26-477: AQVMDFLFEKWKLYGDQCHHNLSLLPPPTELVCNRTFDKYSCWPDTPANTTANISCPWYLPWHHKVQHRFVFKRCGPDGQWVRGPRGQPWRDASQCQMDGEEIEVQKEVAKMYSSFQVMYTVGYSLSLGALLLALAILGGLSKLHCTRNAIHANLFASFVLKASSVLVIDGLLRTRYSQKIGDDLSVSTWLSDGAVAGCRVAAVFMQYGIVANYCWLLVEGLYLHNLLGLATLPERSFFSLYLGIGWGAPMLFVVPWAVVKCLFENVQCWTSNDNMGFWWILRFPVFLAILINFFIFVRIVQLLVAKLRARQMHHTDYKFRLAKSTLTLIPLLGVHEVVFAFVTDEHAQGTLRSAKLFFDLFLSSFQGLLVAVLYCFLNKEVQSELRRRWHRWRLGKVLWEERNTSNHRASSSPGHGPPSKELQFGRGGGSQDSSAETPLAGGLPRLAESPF
UniProt P43220, 24-463: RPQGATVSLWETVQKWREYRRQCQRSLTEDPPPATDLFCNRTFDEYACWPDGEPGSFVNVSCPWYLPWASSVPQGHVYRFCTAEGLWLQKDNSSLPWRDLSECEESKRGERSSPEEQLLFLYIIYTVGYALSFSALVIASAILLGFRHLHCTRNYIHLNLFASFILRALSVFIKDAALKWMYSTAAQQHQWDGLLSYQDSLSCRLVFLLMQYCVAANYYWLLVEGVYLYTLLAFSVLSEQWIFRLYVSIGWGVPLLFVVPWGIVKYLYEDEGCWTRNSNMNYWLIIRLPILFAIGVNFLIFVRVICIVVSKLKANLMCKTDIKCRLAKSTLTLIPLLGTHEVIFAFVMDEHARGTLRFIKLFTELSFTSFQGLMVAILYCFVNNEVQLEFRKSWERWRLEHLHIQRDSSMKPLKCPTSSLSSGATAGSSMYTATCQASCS

Key:
human GCGR = target: T1, human GCGR (Homo sapiens, UniProt P47871); assay: cAMP activity assay, cells expressing human GCGR; assay type: cell-based; conditions: hGCGR_EC50
T1 construct: expressed in transfected cells

human GLP1R = human GLP1R (Homo sapiens, UniProt P43220); assay: cAMP activity assay, cells expressing human GLP1R; assay type: cell-based

Compound | EC50 (human GCGR) | EC50 (human GLP1R; hGLP1R EC50) | EC50 (human GLP1R; cAMP assay, Table 5, read-out: hGLP1R EC50)
CCCCCCCCCCCCCCCC(=O)N[C@@H](CCC(=O)N[C@@H](CCC(=O)NCCCC[C@H](NC(=O)[C@H](CC(=O)O)NC(=O)[C@H](CO)NC(=O)[C@@H](NC(=O)[C@H](Cc1ccccc1)NC(=O)[C@@H](NC(=O)CNC(=O)[C@H](CCC(N)=O)NC(=O)[C@@H](CO)NC(=O)[C@@H](N)Cc1c[nH]cn1)[C@@H](C)O)[C@@H](C)O)C(=O)N[C@@H](CO)C(=O)N[C@@H](CCCCN)C(=O)N[C@@H](Cc1ccc(O)cc1)C(=O)N[C@@H](CC(C)C)C(=O)N[C@@H](CC(=O)O)C(=O)NC(C)(C)C(=O)N[C@@H](CCCNC(=N)N)C(=O)N[C@@H](C)C(=O)N[C@@H](C)C(=O)N[C@@H](CCC(N)=O)C(=O)N[C@@H](CC(=O)O)C(=O)N[C@@H](Cc1ccccc1)C(=O)N[C@H](C(=O)N[C@@H](CCCCN=[N+]=[N-])C(=O)N[C@@H](Cc1c[nH]c2ccccc12)C(=O)N[C@@H](CC(C)C)C(=O)N[C@@H](CC(C)C)C(=O)N[C@@H](CC(=O)O)C(=O)N[C@H](C(N)=O)[C@@H](C)O)C(C)C)C(=O)O)C(=O)O [PEP7] | 0.06 nM | 0.38 nM | –
CSCC[C@H](NC(=O)[C@H](CC(C)C)NC(=O)[C@H](Cc1c[nH]c2ccccc12)NC(=O)[C@H](CCC(N)=O)NC(=O)[C@@H](NC(=O)[C@H](Cc1ccccc1)NC(=O)[C@H](CC(=O)O)NC(=O)[C@H](CCCCN=[N+]=[N-])NC(=O)[C@H](C)NC(=O)[C@H](C)NC(=O)[C@H](CCCNC(=N)N)NC(=O)C(C)(C)NC(=O)[C@H](CC(=O)O)NC(=O)[C@H](CC(C)C)NC(=O)[C@H](Cc1ccc(O)cc1)NC(=O)[C@H](CCCCN)NC(=O)[C@H](CO)NC(=O)[C@H](CCCCN)NC(=O)[C@H](CC(=O)O)NC(=O)[C@H](CO)NC(=O)[C@@H](NC(=O)[C@H](Cc1ccccc1)NC(=O)[C@@H](NC(=O)CNC(=O)[C@H](CCC(N)=O)NC(=O)C(C)(C)NC(=O)[C@@H](N)Cc1c[nH]cn1)[C@@H](C)O)[C@@H](C)O)C(C)C)C(=O)N[C@@H](CC(N)=O)C(=O)N[C@H](C(=O)N[C@@H](CCCCN)C(=O)N[C@@H](CCC(N)=O)C(=O)O)[C@@H](C)O [PEP70] | – | – | 0.04 nM
